The chains behind the UniProt entries cited, without tags or fusion partners. Where a name states a change or a piece, a line headed by the entry shows the natural chain unless it says otherwise.
UniProt Q16186: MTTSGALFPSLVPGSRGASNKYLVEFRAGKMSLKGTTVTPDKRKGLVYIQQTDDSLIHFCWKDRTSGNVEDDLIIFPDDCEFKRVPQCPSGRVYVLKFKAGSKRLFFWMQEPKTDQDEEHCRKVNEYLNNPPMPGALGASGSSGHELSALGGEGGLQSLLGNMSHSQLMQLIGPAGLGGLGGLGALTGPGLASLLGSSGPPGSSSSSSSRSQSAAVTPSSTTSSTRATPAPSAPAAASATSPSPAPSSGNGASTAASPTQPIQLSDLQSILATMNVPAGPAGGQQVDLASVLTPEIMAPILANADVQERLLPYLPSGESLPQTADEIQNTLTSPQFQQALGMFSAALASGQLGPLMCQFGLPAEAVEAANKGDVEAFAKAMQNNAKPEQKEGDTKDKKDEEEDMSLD

According to patent publication US12410141B2, “Anti-cancer spirocyclic-guanidine compounds and uses thereof” (The Johns Hopkins University, priority 2020, dated 2025):

Target: T1, 42 kDa cellular protein previously identified as RPN13 (Homo sapiens, UniProt Q16186)
T1 construct: endogenous in cells; host or cells: ES2 cell lysate (clarified, in MPER buffer)
Test: Labeling of ES2 cell lysate with biotinylated probes
Assay type: binding
Settings: 45 min at 4° C., streptavidin-HRP
Procedure: ES2 cell lysates were incubated with 20 μM RA190B for 45 min at 4° C., and then separated by SDS-PAGE, transferred to a PVDF membrane.
The lysates were then separated by SDS-PAGE, transferred to a PVDF membrane.

Compound: O=C(O)CCCC[C@@H]1SC[C@@H]2NC(=O)N[C@@H]21 [Up284B]
- binding of biotinylated probe to the 42 kDa cellular protein: bound to the same size 42 kDa cellular protein more avidly than RA190B
